From patent US10639284B2, “Immunomodulator compounds” (CHEMOCENTRYX, INC., priority 2016, dated 2020)

Sequences of proteins named here, by UniProt entry; tags and fusion partners are left off. Residues count along the entry.
UniProt Q9NZQ7, 19-239 limits assumed: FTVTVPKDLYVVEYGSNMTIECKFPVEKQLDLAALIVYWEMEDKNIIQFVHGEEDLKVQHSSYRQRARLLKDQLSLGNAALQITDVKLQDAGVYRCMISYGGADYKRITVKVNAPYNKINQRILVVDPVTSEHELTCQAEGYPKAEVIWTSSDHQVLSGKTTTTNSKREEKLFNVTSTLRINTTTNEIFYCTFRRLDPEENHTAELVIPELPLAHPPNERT

Target: human PD-L1 / Human PD-1 (Homo sapiens (Human), UniProt Q9NZQ7)
Assay: Enzyme-Linked Immunosorbent Assay (ELISA), PD-1/PD-L1 binding
Conditions: read-out: ELISA IC50; Table 3; plate-coated human PD-L1, biotinylated human PD-1

## COc1cccc(-c2cccc3c2CC[C@@H]3Oc2cc(OCc3cc(C#N)cc(C#N)c3)c(CN[C@@H](CO)C(=O)O)cc2Cl)c1F
  IC50: < 100 nM
